According to PubChem BioAssay (NCI):
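Following 48 hours of exposure in 96-well plates, responses at five concentrations were used to interpolate endpoints linearly. Abbreviation: GI50, concentration required for 50% inhibition of growth. The concentration for full growth arrest is given as TGI.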

Key:
Test in all cases: NCI anticancer screen, dose series, 48 h
[1] = system: SW-620 colon
[2] = system: NCI-H322M lung
[3] = system: UACC-62 melanoma
[4] = system: OVCAR-5 ovarian
[5] = system: EKVX NSCLC
[6] = system: RPMI-8226 leukemia
[7] = system: SF-268 CNS
[8] = system: T-47D breast
[9] = system: DU-145 prostate
[10] = system: SF-295 CNS
[11] = system: MDA-N
[12] = system: SK-MEL-2 melanoma
[13] = system: HOP-92 NSCLC
[14] = system: NCI-H522 lung
[15] = system: TK-10 renal
[16] = system: OVCAR-8 ovarian
[17] = system: CCRF-CEM leukemia
[18] = system: IGROV1 ovarian
[19] = system: NCI-H460 lung
[20] = system: MCF7 breast
[21] = system: SR leukemia
[22] = system: A549 NSCLC
[23] = system: NCI-H226 lung
[24] = system: HCT-15 colon
[25] = system: NCI-H23 lung
[26] = system: SK-MEL-5 melanoma
[27] = system: SF-539 CNS
[28] = system: K-562 leukemia
[29] = system: MDA-MB-231 breast
[30] = system: ACHN renal

For `[N-]=[N+]=NCC(N)=O`, the TGI [1] was greater than 100 µM, the GI50 [2] was greater than 100 µM and the TGI [2] was greater than 100 µM. The GI50 [3] was greater than 100 µM, the TGI [3] was greater than 100 µM and the GI50 [4] was greater than 100 µM. The TGI [4] was greater than 100 µM, the GI50 [5] was greater than 100 µM and the TGI [5] was greater than 100 µM. For the same compound, the GI50 [6] was greater than 100 µM, the TGI [6] was greater than 100 µM and the GI50 [7] was greater than 100 µM. The TGI [7] was greater than 100 µM, the GI50 [8] was greater than 100 µM and the TGI [8] was greater than 100 µM. It also gave a GI50 [9] greater than 100 µM, a TGI [9] greater than 100 µM and a GI50 [10] greater than 100 µM. For the same compound, the TGI [10] was greater than 100 µM, the GI50 [11] was greater than 100 µM and the TGI [11] was greater than 100 µM. For the same compound, the GI50 [12] was greater than 100 µM, the TGI [12] was greater than 100 µM and the GI50 [13] was greater than 100 µM. The TGI [13] was greater than 100 µM, the GI50 [14] was greater than 100 µM and the TGI [14] was greater than 100 µM. It also gave a GI50 [15] greater than 100 µM, a TGI [15] greater than 100 µM and a GI50 [16] greater than 100 µM. For the same compound, the TGI [16] was greater than 100 µM, the GI50 [17] was greater than 100 µM and the TGI [17] was greater than 100 µM. The GI50 [18] was greater than 100 µM, the TGI [18] was greater than 100 µM and the GI50 [19] was greater than 100 µM. For the same compound, the TGI [19] was greater than 100 µM, the GI50 [20] was greater than 100 µM and the TGI [20] was greater than 100 µM. It also gave a GI50 [21] greater than 100 µM, a TGI [21] greater than 100 µM and a GI50 [22] greater than 100 µM. It also gave a TGI [22] greater than 100 µM, a GI50 [23] greater than 100 µM and a TGI [23] greater than 100 µM. The GI50 [24] was greater than 100 µM, the TGI [24] was greater than 100 µM and the GI50 [25] was greater than 100 µM. The TGI [25] was greater than 100 µM, the GI50 [26] was greater than 100 µM and the TGI [26] was greater than 100 µM. For the same compound, the GI50 [27] was greater than 100 µM, the TGI [27] was greater than 100 µM and the GI50 [28] was greater than 100 µM. The TGI [28] was greater than 100 µM, the GI50 [29] was greater than 100 µM and the TGI [29] was greater than 100 µM. It also gave a GI50 [30] greater than 100 µM and a TGI [30] greater than 100 µM.
